Reference: PMC4538829

Sequences of proteins named here, by UniProt entry; tags and fusion partners are left off.
UniProt P22392, whole entry: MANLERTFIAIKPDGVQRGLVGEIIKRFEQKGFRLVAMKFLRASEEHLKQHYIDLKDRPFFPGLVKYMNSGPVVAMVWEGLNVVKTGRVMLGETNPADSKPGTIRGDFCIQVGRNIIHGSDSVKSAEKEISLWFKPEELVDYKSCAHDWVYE
UniProt P22392, whole entry D54A: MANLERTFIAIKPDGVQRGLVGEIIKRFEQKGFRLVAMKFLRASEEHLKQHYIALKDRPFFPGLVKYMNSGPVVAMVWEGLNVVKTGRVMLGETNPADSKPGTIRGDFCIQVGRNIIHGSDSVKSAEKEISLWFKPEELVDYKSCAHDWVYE
UniProt P22392, whole entry H118F: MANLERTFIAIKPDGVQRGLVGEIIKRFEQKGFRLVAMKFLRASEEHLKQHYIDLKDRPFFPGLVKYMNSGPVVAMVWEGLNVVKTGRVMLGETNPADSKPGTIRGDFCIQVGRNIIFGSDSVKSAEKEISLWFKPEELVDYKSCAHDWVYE

Legend:
Experiment in all cases: MST
NM23-H2 wild-type = NM23-H2 wild-type (UniProt P22392 1-152)
NM23-H2 D54A = NM23-H2 D54A (UniProt P22392 1-152, D54A)
NM23-H2 H118F = NM23-H2 H118F (UniProt P22392 1-152, H118F)

Binder: TGGGGAGGGTGGGGAGGGTGGGGAAGG (ssDNA) [c-MYC Pu27 (FAM)]
- Kd (NM23-H2 wild-type): 140 ± 10 nM
- Kd (NM23-H2 D54A): 7800 ± 630 nM
- Kd (NM23-H2 H118F): 700 ± 29 nM
